Results reported in patent publication US7770577B2, “Methods and devices for treating lung dysfunction” (priority 2001, dated 2010).

System: CF airway epithelial cell cultures
Test: SCN− efflux in CF airway epithelial air-liquid interface cultures
Settings: 14C-SCN− 70 μM basolateral, 18-24 h; three CF patients vs three non-CF cultures
Protocol: J. Respir. […] Experiments comparing non-CF and CF cells were performed with cultures grown simultaneously and matched in passage number, the number of cells plated, and days in culture. […] To initiate experiments, apical surfaces of the cultures were rapidly washed three times with Dulbecco's PBS (50 μl for 6.5 mm filters or 500 μl for 24 mm filters) containing 100 μM amiloride. Following a third wash, additional aliquots were placed on the apical surface for sequential 2 min incubations at 37° C. in humidified 5% CO2.
Bronchial epithelial cells were obtained from either CF or non-CF lungs at the time of transplant or organ donation. Cells were passaged twice (thereby de-differentiated) and then cultured at an air-liquid interface for re-differentiation. […] J. Respir. […] Following three rapid PBS washes of the apical surface, additional PBS aliquots were placed on the apical surface for sequential 2 min incubations. […] Airway epithelial cell cultures from three separate CF patients were compared to three non-CF control cultures.

Compound: N#CS [SCN^−, thiocyanate]
- reduction of SCN^− efflux rates in CF cells versus non-CF control cultures: ~4 fold
